# Laboratory results: patent publication US20240360179A1, “STAPLED PEPTIDES AND METHODS THEREOF” (FOG PHARMACEUTICALS, INC., priority 2021, published 2024)
# The chains behind the UniProt entries cited, without tags or fusion partners.
# UniProt P35222, whole entry: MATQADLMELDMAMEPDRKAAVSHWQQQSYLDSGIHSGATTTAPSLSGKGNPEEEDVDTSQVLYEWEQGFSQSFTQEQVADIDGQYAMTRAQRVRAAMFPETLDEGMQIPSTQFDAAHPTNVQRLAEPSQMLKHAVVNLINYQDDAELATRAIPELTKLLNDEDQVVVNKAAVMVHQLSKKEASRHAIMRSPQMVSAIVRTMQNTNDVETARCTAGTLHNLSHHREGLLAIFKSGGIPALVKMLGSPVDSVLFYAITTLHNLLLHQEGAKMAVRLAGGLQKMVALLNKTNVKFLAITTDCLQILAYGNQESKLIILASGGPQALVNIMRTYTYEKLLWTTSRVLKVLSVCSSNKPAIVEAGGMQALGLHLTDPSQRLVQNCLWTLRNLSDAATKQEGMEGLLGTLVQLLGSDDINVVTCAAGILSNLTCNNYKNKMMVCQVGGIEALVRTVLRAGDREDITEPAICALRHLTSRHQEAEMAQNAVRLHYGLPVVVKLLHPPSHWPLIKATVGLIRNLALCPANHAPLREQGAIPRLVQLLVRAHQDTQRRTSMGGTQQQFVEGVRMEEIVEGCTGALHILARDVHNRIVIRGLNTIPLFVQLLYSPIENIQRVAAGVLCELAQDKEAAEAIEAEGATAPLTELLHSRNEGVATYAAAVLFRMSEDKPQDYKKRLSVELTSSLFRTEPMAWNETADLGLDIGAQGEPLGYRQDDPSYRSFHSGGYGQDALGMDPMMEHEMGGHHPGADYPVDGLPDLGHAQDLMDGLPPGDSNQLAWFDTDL
# Biological target: T1, full-length B-Catenin (Uniprot ID P35222) (Homo sapiens, UniProt P35222)
# T1 construct: 10 nM full-length B-Catenin (Uniprot ID P35222)
# Format: binding
# Conditions: competition fluorescence polarization; read-out: beta-Catenin FP IC50
row,Substance,IC50 [nM]
1,Ac-S5-Ala-Glu-Npg-B5-Glu-3COOHF-Aib-Ala-Phe-Lys*3-PyrS2-3Thi-BztA-GlnR*3-Ala-NH2 [I-1207],> 1000
2,Ac-S5-Ala-Hse-Npg-B5-Asp-3COOHF-Aib-Ala-Phe-Lys*3-PyrS2-3Thi-BztA-GlnR*3-Ala-NH2 [I-1197],50 to 200
3,Ac-S5-Ala-Hse-Npg-B5-Asp-3COOHF-Aib-Ala-Phe-Lys*3-PyrS2-3Thi-BztA-GlnR*3-Ala-NH2 [I-1198],> 1000
4,Ac-S5-Ala-Hse-Npg-B5-Asp-3COOHF-Aib-Ala-Phe-Lys*3-PyrS2-3Thi-BztA-GlnR*3-Ala-NH2 [I-1220],200 to 750
5,Ac-S5-Ala-Ser-Npg-B5-Asp-3COOHF-Aib-Ala-Phe-Lys*3-PyrS2-3Thi-BztA-GlnR*3-Ala-NH2 [I-1195],200 to 750
6,Ac-S5-Ala-Ser-Npg-B5-Asp-3COOHF-Aib-Ala-Phe-Lys*3-PyrS2-3Thi-BztA-GlnR*3-Ala-NH2 [I-1196],200 to 750
7,Ac-S5-Ala-Ser-Npg-B5-Asp-3COOHF-Aib-Ala-Phe-Lys*3-PyrS2-3Thi-BztA-GlnR*3-Ala-NH2 [I-1219],> 1000
8,Ac-S5-Asp-Asn-Npg-B5-Asp-3COOHF-Aib-Ala-Phe-Lys*3-PyrS2-Phe-34ClF-GlnR*3-NH2 [I-1674],200 to 750
9,Ac-S5-Asp-Asp-DipA-B5-Asp-3COOHF-Aib-Ala-Phe-Lys*3-PyrS1-3Thi-BztA-GlnR*3-NH2 [I-1871],< 50
10,Ac-S5-Asp-Asp-Npg-B5-Asp-3COOHF-Aib-Ala-Phe-Lys*3-PyrS2-Phe-34ClF-GlnR*3-NH2 [I-1673],< 50
11,Ac-S5-Asp-Asp-Npg-B5-Glu-3COOHF-Aib-Ala-Phe-Lys*3-PyrS2-Phe-34ClF-GlnR*3-NH2 [I-1676],200 to 750
12,Ac-S5-Asp-Ser-Npg-B5-Asp-3COOHF-Aib-Ala-Phe-Lys*3-PyrS2-Phe-34ClF-GlnR*3-NH2 [I-1675],200 to 750
13,Ac-S5-Glu-Asn-Npg-B5-Asp-3COOHF-Aib-Ala-Phe-Lys*3-PyrS2-Phe-34ClF-GlnR*3-NH2 [I-1677],200 to 750
14,Ac-S5-Glu-Asp-Cha-B5-Asp-3COOHF-Aib-Ala-Phe-Lys*3-PyrS2-Phe-34ClF-GlnR*3-NH2 [I-1619],< 50
15,Ac-S5-Glu-Asp-Chg-B5-Asp-3COOHF-Aib-Ala-Phe-Lys*3-PyrS2-Phe-34ClF-GlnR*3-NH2 [I-1623],< 50
16,Ac-S5-Glu-Asp-DipA-B5-Asp-3COOHF-Aib-Ala-Phe-Lys*3-PyrS1-3Thi-BztA-GlnR*3-NH2 [I-1872],< 50
17,Ac-S5-Glu-Asp-Npg-B5-Glu-3COOHF-Aib-Ala-Phe-Lys*3-PyrS2-3Thi-BztA-GlnR*3-Ala-NH2 [I-1211],< 50
18,Ac-S5-Glu-Asp-Npg-B5-Glu-3COOHF-Aib-Ala-Phe-Lys*3-PyrS2-3Thi-BztA-GlnR*3-Ala-NH2 [I-1212],< 50
19,Ac-S5-Glu-Asp-Npg-B5-Glu-3COOHF-Aib-Ala-Phe-Lys*3-PyrS2-3Thi-BztA-GlnR*3-Ala-NH2 [I-1227],50 to 200
20,Ac-S5-Glu-Asp-Npg-B5-Glu-3COOHF-Aib-Ala-Phe-Lys*3-PyrS2-Phe-34ClF-GlnR*3-NH2 [I-1679],50 to 200
21,Ac-S5-Glu-Glu-Npg-B5-Asp-3COOHF-Aib-Ala-Phe-Lys*3-PyrS2-3Thi-BztA-GlnR*3-Ala-NH2 [I-1209],> 1000
22,Ac-S5-Glu-Glu-Npg-B5-Asp-3COOHF-Aib-Ala-Phe-Lys*3-PyrS2-3Thi-BztA-GlnR*3-Ala-NH2 [I-1210],750 to 1000

row,Substance,IC50 [nM]
1,Ac-S5-Glu-Glu-Npg-B5-Asp-3COOHF-Aib-Ala-Phe-Lys*3-PyrS2-3Thi-BztA-GlnR*3-Ala-NH2 [I-1226],750 to 1000
2,Ac-S5-Glu-Glu-Npg-B5-Glu-3COOHF-Aib-Ala-Phe-Lys*3-PyrS2-3Thi-BztA-GlnR*3-Ala-NH2 [I-1228],> 1000
3,Ac-S5-Glu-Ser-Npg-B5-Asp-3COOHF-Aib-Ala-Phe-Lys*3-PyrS2-Phe-34ClF-GlnR*3-NH2 [I-1678],200 to 750
4,Ac-S5-Ile-Asp-Ile-B5-Asp-3COOHF-Aib-Ala-Phe-Lys*3-PyrS2-Phe-34ClF-GlnR*3-NH2 [I-1344],50 to 200
5,Ac-S5-Leu-Asp-Chg-B5-Asp-3COOHF-Leu-Ala-Phe-Lys*3-PyrS1-3Thi-BztA-GlnR*3-NH2 [I-1936],< 50
6,Ac-S5-Leu-Asp-DipA-B5-Asp-3COOHF-Aib-Ala-Phe-Lys*3-PyrS1-3Thi-BztA-GlnR*3-NH2 [I-1874],< 50
7,Ac-S5-Leu-Asp-DipA-B5-Asp-3COOHF-Aib-Ala-Phe-Lys*3-PyrS1-Phe-34ClF-GlnR*3-NH2 [I-1785],< 50
8,Ac-S5-Leu-Asp-Ile-B5-Asp-3COOHF-Aib-Ala-Phe-Lys*3-PyrS2-Phe-34ClF-GlnR*3-NH2 [I-1296],50 to 200
9,Ac-S5-Leu-Asp-Val-B5-Asp-3COOHF-Leu-Ala-Phe-Lys*3-PyrS1-3Thi-BztA-GlnR*3-NH2 [I-1935],< 50
10,Ac-S5-Pro-Asp-Cha-B5-Asp-3COOHF-Aib-Ala-Phe-Lys*3-PyrS2-Phe-34ClF-GlnR*3-NH2 [I-1617],< 50
11,Ac-S5-Pro-Asp-Chg-B5-Asp-3COOHF-Aib-Ala-Phe-Lys*3-PyrS2-Phe-34ClF-GlnR*3-NH2 [I-1621],< 50
12,Ac-S5-Pro-Asp-DipA-B5-Asp-3COOHF-Aib-Ala-Phe-Lys*3-PyrS1-Phe-34ClF-GlnR*3-NH2 [I-1694],< 50
13,Ac-S5-Pro-Asp-Npg-B5-Asp-Asp-Aib-Ala-Phe-Lys*3-PyrS2-3Thi-BztA-GlnR*3-Ala-NH2 [I-1332],< 50
14,Ac-S5-Pro-Asp-Npg-B5-Glu-Asp-Aib-Ala-Phe-Lys*3-PyrS2-3Thi-BztA-GlnR*3-Ala-NH2 [I-1333],200 to 750
15,Ac-S5-Pro-Asp-Npg-B5-TfeGA-Asp-Aib-Ala-Phe-Lys*3-PyrS2-3Thi-BztA-GlnR*3-Ala-NH2 [I-1334],> 1000
16,Ac-S5-Tle-Asp-Ile-B5-Asp-3COOHF-Aib-Ala-Phe-Lys*3-PyrS2-Phe-34ClF-GlnR*3-NH2 [I-1342],50 to 200
17,Ac-S5-Val-Asp-Cha-B5-Asp-3COOHF-Aib-Ala-Phe-Lys*3-PyrS2-Phe-34ClF-GlnR*3-NH2 [I-1618],50 to 200
18,Ac-S5-Val-Asp-Chg-B5-Asp-3COOHF-Aib-Ala-Phe-Lys*3-PyrS2-Phe-34ClF-GlnR*3-NH2 [I-1622],< 50
19,Ac-S5-Val-Asp-Ile-B5-Asp-3COOHF-Aib-Ala-Phe-Lys*3-PyrS2-Phe-34ClF-GlnR*3-NH2 [I-1343],50 to 200
20,Ac-S6-Aib-Asp-Npg-B5-Asp-3COOHF-Aib-Ala-Phe-Lys*3-PyrS2-Phe-34ClF-GlnR*3-NH2 [I-1523],< 50
21,Ac-S6-Ala-Asp-Cha-B5-Asp-3COOHF-Aib-Ala-Phe-Lys*3-PyrS2-Phe-34ClF-GlnR*3-NH2 [I-1624],< 50
22,Ac-S6-Ala-Asp-Chg-B5-Asp-3COOHF-Aib-Ala-Phe-Lys*3-PyrS2-Phe-34ClF-GlnR*3-NH2 [I-1625],< 50

row,Substance,IC50 [nM]
1,Ac-S6-Ala-Asp-DipA-B5-Asp-3COOHF-nLeu-Ala-Phe-Lys*3-PyrS1-Phe-34ClF-GlnR*3-NH2 [I-1691],< 50
2,Ac-S6-Ala-Asp-Npg-B5-Ala-Asp-3COOHF-Aib-Ala-Phe-[4Abu]DapAc7-Leu-3Thi-BztA-GlnR*3-Ala-NH2 [I-1298],> 1000
3,Ac-S6-Glu-Asp-DipA-B5-Asp-3COOHF-Aib-Ala-Phe-Lys*3-PyrS1-3Thi-34ClF-GlnR*3-Val-NH2 [I-1934],< 50
4,Ac-S6-Glu-Asp-DipA-B5-Asp-3COOHF-Aib-Ala-Phe-Lys*3-PyrS1-3Thi-BztA-GlnR*3-NH2 [I-1929],< 50
5,Ac-S6-Glu-Asp-DipA-B5-Asp-3COOHF-Aib-Ala-Phe-Lys*3-PyrS1-Phe-34ClF-GlnR*3-NH2 [I-1927],< 50
6,Ac-S6-Glu-Asp-DipA-B5-Asp-3COOHF-Aib-Ala-Phe-Lys*3-PyrS1-Phe-34ClF-GlnR*3-Val-NH2 [I-1933],< 50
7,Ac-S6-Glu-Asp-DipA-B5-Asp-3COOHF-Aib-Ala-Phe-Lys*3-PyrS1-Phe-BztA-GlnR*3-NH2 [I-1928],< 50
8,Ac-S6-Glu-Asp-DipA-B5-Asp-3COOHF-Leu-Ala-Phe-Lys*3-PyrS1-3Thi-BztA-GlnR*3-NH2 [I-1932],< 50
9,Ac-S6-Glu-Asp-DipA-B5-Asp-3COOHF-Leu-Ala-Phe-Lys*3-PyrS1-Phe-34ClF-GlnR*3-NH2 [I-1930],< 50
10,Ac-S6-Glu-Asp-DipA-B5-Asp-3COOHF-Leu-Ala-Phe-Lys*3-PyrS1-Phe-BztA-GlnR*3-NH2 [I-1931],< 50
11,Ac-S6-Leu-Asp-DipA-B5-Asp-3COOHF-Aib-Ala-Phe-Lys*3-PyrS1-3Thi-BztA-GlnR*3-NH2 [I-1939],< 50
12,Ac-S6-Leu-Asp-Val-B5-Asp-3COOHF-Aib-Ala-Phe-Lys*3-PyrS1-3Thi-BztA-GlnR*3-NH2 [I-1938],< 50
13,Ac-S6-Leu-Asp-Val-B5-Asp-3COOHF-Leu-Ala-Phe-Lys*3-PyrS1-3Thi-BztA-GlnR*3-NH2 [I-1937],< 50
14,Ac-S6-MePro-Asp-Npg-B5-Asp-3COOHF-Aib-Ala-Phe-Lys*3-PyrS2-Phe-34ClF-GlnR*3-NH2 [I-1524],50 to 200
15,Ac-S6-Pro-Asp-DipA-B5-Asp-3COOHF-Aib-Ala-Phe-Lys*3-PyrS1-Phe-34ClF-GlnR*3-NH2 [I-1696],< 50
16,Ac-S6-Val-Asp-DipA-B5-Asp-3COOHF-Aib-Ala-Phe-Lys*3-PyrS1-Phe-34ClF-GlnR*3-NH2 [I-1783],< 50
17,Bnc-PL3-Asn-DipA-B5-Asp-3COOHF-CyLeu-Ala-Phe-Lys*3-PyrS2-3Thi-34ClF-GlnR*3-NH2 [I-1728],50 to 200
18,Bnc-PL3-Asp-DipA-B5-Asp-3COOHF-CyLeu-Ala-Phe-Lys*3-PyrS2-3Thi-34ClF-GlnR*3-NH2 [I-1715],< 50
19,Bua-PL3-Asp-Ile-B5-Asp-3COOHF-Aib-Ala-Phe-Lys*3-PyrS2-3Thi-34ClF-GlnR*3-NH2 [I-1584],< 50
20,C3a-PL3-Asp-Ile-B5-Asp-3COOHF-Aib-Ala-Phe-Lys*3-PyrS2-3Thi-34ClF-GlnR*3-NH2 [I-1582],< 50
21,CF3CO-PL3-Asn-DipA-B5-Asp-3COOHF-CyLeu-Ala-Phe-Lys*3-PyrS2-3Thi-34ClF-GlnR*3-NH2 [I-1729],< 50
